This note sets out measurements from patent US20110150914A1, “COMPOSITIONS AND METHODS FOR DENGUE VIRUS (DV) TREATMENT AND VACCINATION” (priority 2008, published 2011).

Protein sequences, listed by entry. Tags and fused reporters are not part of them. Residues count along the entry.
UniProt P01899, 25-362: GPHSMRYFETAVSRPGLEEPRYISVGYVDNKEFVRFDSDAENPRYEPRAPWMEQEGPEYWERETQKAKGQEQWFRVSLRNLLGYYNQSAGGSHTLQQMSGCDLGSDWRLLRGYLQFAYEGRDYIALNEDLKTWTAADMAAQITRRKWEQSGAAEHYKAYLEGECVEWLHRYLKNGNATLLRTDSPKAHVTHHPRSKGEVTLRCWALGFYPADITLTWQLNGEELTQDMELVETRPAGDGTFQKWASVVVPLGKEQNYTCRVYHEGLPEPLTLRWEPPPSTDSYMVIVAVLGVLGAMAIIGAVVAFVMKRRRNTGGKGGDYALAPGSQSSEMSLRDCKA

This experiment addresses T1, purified H-2 D^b molecules (Mus musculus, UniProt P01899).
T1 construct: made in house
Briefly: MHC peptide-binding assay, purified H-2 D^b. The conditions noted are these: radiolabeled peptide competition, read-out: Binding affinity (IC50 nM) H2-D^b. As for the experimental part: Briefly, 0.1-1 nM of radiolabeled peptide was co-incubated at room temperature with 1 μM to 1 nM of purified MHC in the presence of 1-3 μM human β2-microglobulin (Scripps Laboratories) and a mixture of protease inhibitors. After a 2 day incubation, binding of the radiolabeled peptide to the corresponding MHC class I molecule was determined by capturing MHC/peptide complexes on Lumitrac 600 microplates (Greiner Bio-One) coated with either the Y3 (anti-H-2 K^b) or 28-14-8S (anti-H-2 D^b, L^d and D^q) Ab, followed by measurement of bound counts per minute (cpm) using the TopCount microscintillation counter (Packard).

Each structure is given as a SMILES string.

In the case of `CC(C)C[C@H](NC(=O)[C@H](CO)NC(=O)[C@@H](NC(=O)[C@H](CC(N)=O)NC(=O)[C@@H](NC(=O)[C@H](CO)NC(=O)[C@@H](N)CO)C(C)C)C(C)C)C(=O)N[C@H](C(=O)O)[C@@H](C)O` [NS4B59-66, SSVNVSLT], the IC50 – broadly, the point on the concentration scale where inhibition reaches its midpoint – came out at 1450 nM.
